Structures are written as SMILES.

By UniProt entry, the sequences of proteins in these tests, tags left out.
UniProt P14902, whole entry: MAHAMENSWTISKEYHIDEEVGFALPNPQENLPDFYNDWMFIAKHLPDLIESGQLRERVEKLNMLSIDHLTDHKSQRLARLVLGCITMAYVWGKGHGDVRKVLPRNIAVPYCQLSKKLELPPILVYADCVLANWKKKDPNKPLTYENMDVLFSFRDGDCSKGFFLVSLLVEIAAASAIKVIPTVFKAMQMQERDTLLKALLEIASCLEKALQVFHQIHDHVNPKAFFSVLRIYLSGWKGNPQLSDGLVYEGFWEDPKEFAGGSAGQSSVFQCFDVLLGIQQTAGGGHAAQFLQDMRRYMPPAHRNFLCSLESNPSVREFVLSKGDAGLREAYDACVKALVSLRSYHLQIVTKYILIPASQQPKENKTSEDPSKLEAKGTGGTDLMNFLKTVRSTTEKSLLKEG

IC50 data for one compound are collected here from patent US11370762B2, “Vinylarene derivative and application” (SHENYANG RESEARCH INSTITUTE OF CHEMICAL INDUSTRY CO., LTD., priority 2017, dated 2022).

This assay has as its target IDO1 enzyme in Hela cells (Homo sapiens, UniProt P14902). Kind of assay: Inhibition of IDO1 enzyme in IFN-γ stimulated Hela cells (kynurenine read at 480 nm). Particulars: read-out: Inhibition rate IC50 (nmol/L) on IDO1 enzyme activity in Hela cells. In kind it is cell-based.

Turning to `Cc1ccc(NC(=O)Nc2cc([C@H]3C[C@H]3C(=O)O)ccc2N(CC(C)C)CC(C)C)cc1` (single isomer, unassigned), the IC50 is 1.56 nmol/L.
